Read-outs that look alike come from different tables or passages of the source.
Tests used:
intrinsic FXa activity = intrinsic FXa activity (Homo sapiens, UniProt P00742)
[1] = target: intrinsic factor X activity (Homo sapiens, UniProt P00742)

The chains behind the UniProt entries cited, without tags or fusion partners. Residues count along the entry.
UniProt P00742, 41-179 partner limits assumed: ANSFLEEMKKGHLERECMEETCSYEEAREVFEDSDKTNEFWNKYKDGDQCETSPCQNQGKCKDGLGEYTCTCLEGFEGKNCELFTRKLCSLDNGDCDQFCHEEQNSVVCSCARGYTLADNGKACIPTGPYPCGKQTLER
UniProt P00742, 235-488 limits assumed: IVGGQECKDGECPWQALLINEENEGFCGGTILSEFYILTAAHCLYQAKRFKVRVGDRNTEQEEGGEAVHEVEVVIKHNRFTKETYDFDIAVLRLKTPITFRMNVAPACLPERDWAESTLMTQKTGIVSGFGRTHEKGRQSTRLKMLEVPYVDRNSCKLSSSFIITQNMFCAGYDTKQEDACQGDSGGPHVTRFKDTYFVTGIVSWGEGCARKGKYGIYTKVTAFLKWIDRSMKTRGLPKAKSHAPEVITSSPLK

percent mean maximum change in intrinsic FXa values from baseline (intrinsic FXa activity; cyclosporine study, edoxaban 60 mg alone): −64.3% | percent mean maximum change in intrinsic FXa values from baseline (intrinsic FXa activity; edoxaban 60 mg + cyclosporine 500 mg): −81.8% | increase in inhibitory activity (intrinsic FXa) (intrinsic FXa activity; edoxaban + cyclosporine vs edoxaban alone): approximately 1.3 fold | mean value of intrinsic FX inhibition ([1]; edoxaban 60 mg + ketoconazole): 109.4% | mean value of intrinsic FX inhibition ([1]; ketoconazole study, edoxaban 60 mg alone): 101.3%
Compound: CN1CCc2nc(C(=O)N[C@@H]3C[C@@H](C(=O)N(C)C)CC[C@@H]3NC(=O)C(=O)Nc3ccc(Cl)cn3)sc2C1 [Edoxaban]

Source: PMC5099547 (British Journal of Clinical Pharmacology, 2016)
